Experiment in all cases: Fluorescence Polarization (FP) Based Competitive Assay: Binding affinities of the present compounds to XIAP linker-BIR2-BIR3 (residues 120-356), cIAP1-BIR3 (residues 253-363), and cIAP-2 BIR3 (residues 238-349) proteins were determined by fluorescence polarization (FP) based competitive assays. For cIAP-1 BIR3 and cIAP-2 BIR3 assays, a fluorescently labeled Smac mimetic (Smac-2F) was used as the …
(Polarisation of emitted light reports the rotation of a fluorescent probe.)

By UniProt entry, the sequences of proteins in these tests, tags left out.
UniProt P98170, whole entry: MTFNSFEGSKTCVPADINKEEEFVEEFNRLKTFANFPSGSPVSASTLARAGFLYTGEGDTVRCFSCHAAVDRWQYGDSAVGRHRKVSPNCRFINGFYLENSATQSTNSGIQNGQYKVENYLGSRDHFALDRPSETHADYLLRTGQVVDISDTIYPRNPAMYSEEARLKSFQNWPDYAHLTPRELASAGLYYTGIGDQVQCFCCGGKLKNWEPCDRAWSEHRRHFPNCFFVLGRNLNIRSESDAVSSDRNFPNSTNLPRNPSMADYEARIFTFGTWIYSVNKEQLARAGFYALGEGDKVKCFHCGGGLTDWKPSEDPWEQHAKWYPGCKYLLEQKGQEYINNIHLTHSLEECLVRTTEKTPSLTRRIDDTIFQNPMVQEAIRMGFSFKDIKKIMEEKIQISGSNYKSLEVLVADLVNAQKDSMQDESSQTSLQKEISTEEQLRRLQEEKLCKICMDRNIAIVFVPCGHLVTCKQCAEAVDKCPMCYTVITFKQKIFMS

For assay [1], the target named is Baculoviral IAP repeat-containing protein 2 (Homo sapiens, UniProt Q13490).
The target in assay [2] is E3 ubiquitin-protein ligase XIAP (Homo sapiens, UniProt P98170).
For assay [3], the target named is Baculoviral IAP repeat-containing protein 3 (Homo sapiens, UniProt Q13489).

The structures appear in SMILES notation.

Consider `CN[C@@H](C)C(=O)N[C@H]1CN(C(=S)Nc2ccc(NC(=S)N3CC[C@H]4CC[C@@H](C(=O)NC(c5ccccc5)c5ccccc5)N4C(=O)[C@@H](NC(=O)[C@H](C)NC)C3)cc2)CC[C@H]2CCC(C(=O)NC(c3ccccc3)c3ccccc3)N2C1=O` (stereo partly drawn), for which the IC50 (as a rule, the point on the concentration scale where inhibition reaches its midpoint) in assay [1] was under 300 nM; in assay [2] it was under 30 nM; in assay [3] it was under 300 nM.

These data come from ChEMBL document CHEMBL3639096, “Bivalent inhibitors of IAP proteins and therapeutic methods using the same” (2014).
